For assay [1], the system named is Purified, recombinant FGFR4. The following applies: 10 μM compound.
The test system of assay [2] is JHH7 hepatocellular carcinoma xenograft. Put plainly: In vivo efficacy, JHH7 tumor xenograft.
The subject of assay [3] is HEP3B hepatocellular carcinoma xenograft. Put plainly: In vivo efficacy, HEP3B tumor xenograft. Details: species or system nude mice.
The test system of assay [4] is HUH7 hepatocellular carcinoma xenograft. Put plainly: In vivo efficacy, HUH7 tumor xenograft. Details: species or system nude mice.

With `C=CC(=O)Nc1ccccc1Nc1cc(N(C)C(=O)Nc2c(Cl)c(OC)cc(OC)c2Cl)ncn1` [Example 100, N-(2-{6-[3-(2,6-dichloro-3,5-dimethoxy-phenyl)-1-methyl-ureido]-pyrimidin-4-ylamino}-phenyl)-acrylamide], the “Observed mass of modified, intact FGFR4” value in assay [1] (direct injection, intact protein) is on record as 35836.1 Da. Besides, in assay [1] (tryptic digest, modified peptide), the “Observed mass of peptide-ligand adduct” value is on record as 3134.48 Da.

`C=CC(=O)Nc1cc(N2CCN(CC)CC2)ccc1Nc1cc(N(C)C(=O)Nc2c(Cl)c(OC)cc(OC)c2Cl)ncn1` [Example 108, N-(2-(6-(3-(2,6-Dichloro-3,5-dimethoxyphenyl)-1-methylureido)-pyrimidin-4-ylamino)-5-(4-ethylpiperazin-1-yl)-phenyl)-acrylamide]: the results for the “Sensitivity of the tumor model to the compound” value in assay [2], in assay [3] and in assay [4] were “least sensitive”, “most sensitive” and “intermediate sensitivity”, respectively. Further, the Tumor response result in assay [2] (all dose levels) was “Progressive Disease in all dose levels tested”.

For the origin of these results see patent US9730931B2, “Pyrimidine FGFR4 inhibitors” (priority 2013, dated 2017).
